Source: ChEMBL document CHEMBL1125820, “Structure-activity relationship of mutagenic aromatic and heteroaromatic nitro compounds. Correlation with molecular orbital energies and hydrophobicity” (J Med Chem, 1991)

Assay: physchem
Conditions: octanol/water

**Q.** For `O=Cc1ccccc1[N+](=O)[O-]` [2-NITROBENZALDEHYDE], which logP is on record?
**A.** 1.74
